Assay results taken from patent US20150231238A1, “OVERCOMING RESISTANCE TO ERBB PATHWAY INHIBITORS” (MERRIMACK PHARMACEUTICALS, INC., priority 2011, published 2015).

Tests used:
[1] = test system: BT474-M3 cells; assay: In vitro breast cancer model, viable cell count after 6 days; format: cell-based; details: basal conditions
[2] = test system: pAKT in heregulin-stimulated BT474-M3 cells; assay: Inhibition of AKT phosphorylation in heregulin-stimulated cells; format: cell-based; details: dose range
Source text: Viable cells are counted following 6 days of treatment.

[3] = test system: BT474-M3 breast cancer xenograft; assay: BT474-M3 breast cancer xenograft model; format: in vivo, mice; details: MM-111 3 mg/kg every 3 days, trastuzumab 1 mg/kg weekly
Procedure: BT474-M3 cells (2×10^7 cells per mice) are inoculated subcutaneously into Nu/Nu immunodeficient mice, which are implanted with an estrogen pellet (0.72 mg; 60-day release) one day before the experiment. […] Tumors are measured twice a week and the experiment is ended at day 40.

[4] = test system: BT474-M3 parental (wild-type) cells; assay: Cell proliferation assay (WST-1), parental cells; format: cell-based; details: series dilution, five days
Procedure: (§1) BT474-M3 parental (wild-type) and trastuzumab-resistant cells are plated in 96-well plates (3000 cells/well). […] After five days of treatment, cell viability is measured by WST-1 (Roche, Cat. #5015944001) according to manufacturer's instructions. Cells treated with control (RPMI1640 with 10% FBS) are set as 100%, other treatments are expressed as percentage of the control.

[5] = test system: trastuzumab-resistant BT474-M3 cells; assay: Cell proliferation assay (WST-1), trastuzumab-resistant cells; format: cell-based; details: series dilution, five days
Procedure: as §1

[6] = test system: BT474-M3 wild type cell spheroids; assay: Spheroid assay, parental cells; format: cell-based; details: series dilution, six days
Procedure: (§2) BT474-M3 wild type and trastuzumab-resistant cells (2000 cells/well) are plated in Ultra Low Cluster 96-well plates (Costar®, Corning, N.Y.). […] Cells are cultured for six days. Spheroids are then examined by Nikon microscope and analyzed by MetaMorph® Image Analysis Software (Molecular Devices). The spheroid size from cells cultured in medium containing 10% FBS is set as a control.

[7] = test system: trastuzumab-resistant BT474-M3 cell spheroids; assay: Spheroid assay, trastuzumab-resistant cells; format: cell-based
Procedure: as §2

trastuzumab: humanized anti-HER2 monoclonal antibody [reference compound]
inhibition of cell proliferation [1]: 32%
inhibition of AKT phosphorylation [2]: did not inhibit AKT phosphorylation
completely regressed tumors [3]: no complete regressions were observed
inhibition of cell proliferation [4]: significantly inhibited cell proliferation
inhibition of cell proliferation [5]: inhibitory effect was significantly reduced
inhibition of spheroid growth [6]: significantly inhibited spheroid growth
inhibition of spheroid growth in combination with gefitinib ([7]; in the presence of 100 nM gefitinib): not sufficient to overcome the resistance
inhibition of spheroid growth in combination with erlotinib ([7]; in the presence of 300 nM erlotinib): not sufficient to overcome the resistance
inhibition of spheroid growth ([7]; trastuzumab-resistant cells, series dilution, six days): diminished
